Experimental data from patent US20250326790A1, “PEPTIDES BINDING TO HYPOXIA INDUCIBLE FACTORS AND THEIR USE” (UNIVERSITY OF SOUTHAMPTON, priority 2021, published 2025).

By UniProt entry, the sequences of proteins in these tests, tags left out. Residues count along the entry.
UniProt Q16665, 228-298: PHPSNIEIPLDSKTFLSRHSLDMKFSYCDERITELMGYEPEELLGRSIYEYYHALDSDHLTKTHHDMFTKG
UniProt Q16665, 238-349 limits assumed: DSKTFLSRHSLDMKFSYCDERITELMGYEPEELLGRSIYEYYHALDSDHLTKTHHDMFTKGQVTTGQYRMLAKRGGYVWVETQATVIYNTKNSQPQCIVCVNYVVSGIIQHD
UniProt Q99814, 230-300: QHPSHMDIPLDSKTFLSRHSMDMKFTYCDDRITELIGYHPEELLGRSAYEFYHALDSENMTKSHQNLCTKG
UniProt Q99814, 240-350 limits assumed: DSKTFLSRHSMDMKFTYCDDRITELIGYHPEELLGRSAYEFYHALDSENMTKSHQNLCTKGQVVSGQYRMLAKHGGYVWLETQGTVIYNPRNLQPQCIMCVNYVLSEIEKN

biological target: recombinantly expressed PAS-B domain of HIF-1α (Homo sapiens (Human), UniProt Q16665); assay: MST binding affinity to PAS-B domain of HIF-1α; conditions: microscale thermophoresis, 50 nM labelled protein, 10% DMSO
Protocol: (§1) MST experiments were performed on a Monolith NT.115 system (Nanotemper Technologies GmbH), in assay buffer containing 50 nM labelled protein, 10% DMSO and 0.05% TWEEN-20. MST measurements were performed using 50% LED and 50% MST power.

| Structure (SMILES) | Kd |
| --- | --- |
| CC(C)CC[C@H](NS(=O)(=O)c1ccc(Cl)s1)C(=O)N[C@@H](Cc1ccc(I)cc1)C(=O)N[C@@H](CS)C(=O)O [Example 19] | 8.4 µM |
| CC(C)CC[C@H](NS(=O)(=O)c1ccc(Br)s1)C(=O)N[C@@H](Cc1ccc(I)cc1)C(=O)N[C@@H](CS)C(N)=O [Example 24] | 25 µM |
| CC(C)CC[C@H](NC(=O)c1ccco1)C(=O)N[C@@H](Cc1ccc(I)cc1)C(=O)N[C@@H](CS)C(N)=O [Example 8] | 17 µM |
| CC(C)CC[C@H](NS(=O)(=O)c1ccc(Cl)s1)C(=O)N[C@@H](Cc1ccc(I)cc1)C(=O)N[C@@H](CS)C(=O)NC1CCOCC1 [Example 44] | 15 µM |
| CC(C)CC[C@H](NS(=O)(=O)c1ccc(Cl)s1)C(=O)N[C@@H](Cc1ccc(I)cc1)C(=O)N[C@@H](CS)C(=O)NCc1cccs1 [Example 47] | 12 µM |
| CC(C)CC[C@H](NS(=O)(=O)c1ccc(Cl)s1)C(=O)N[C@@H](Cc1ccc(I)cc1)C(=O)N[C@@H](CS)C(=O)NCc1ccccc1 [Example 45] | 12 µM |
| COC(=O)C(CCCNC(=N)N)NC(=O)[C@H](CS)NC(=O)[C@H](Cc1ccc(I)cc1)NC(=O)[C@H](CCC(C)C)NS(=O)(=O)c1ccc(Cl)s1 (stereo partly shown) [Example 42] | 25 µM |
| CCNC(=O)[C@H](CS)NC(=O)[C@H](Cc1ccc(I)cc1)NC(=O)[C@H](CCC(C)C)NS(=O)(=O)c1ccc(Cl)s1 [Example 31] | 22 µM |
| CCCC(=O)N[C@@H](CCC(C)C)C(=O)N[C@@H](Cc1ccc(I)cc1)C(=O)N[C@@H](CS)C(N)=O [Example 11] | 13 µM |
| CCS(=O)(=O)N[C@@H](CCC(C)C)C(=O)N[C@@H](Cc1ccc(I)cc1)C(=O)N[C@@H](CS)C(N)=O [Example 14] | 22 µM |
| CC(C)CC[C@H](NS(=O)(=O)c1cccs1)C(=O)N[C@@H](Cc1ccc(I)cc1)C(=O)N[C@@H](CS)C(N)=O [Example 23] | 13 µM |
| CC(C)CC[C@H](NS(=O)(=O)c1ccc(Cl)s1)C(=O)N[C@@H](Cc1ccc(I)cc1)C(=O)N[C@@H](CS)C(=O)NCCNc1ccccc1 [Example 39] | 17 µM |
| CC(C)CC[C@H](NS(=O)(=O)c1ccc(Cl)s1)C(=O)N[C@@H](Cc1ccc(I)cc1)C(=O)N[C@@H](CS)C(=O)NCC(F)(F)F [Example 32] | 15 µM |

biological target: recombinantly expressed PAS-B domain of HIF-2α (Homo sapiens (Human), UniProt Q99814); assay: MST binding affinity to PAS-B domain of HIF-2α; conditions: microscale thermophoresis, 50 nM labelled protein, 10% DMSO
Protocol: as §1

| Structure (SMILES) | Kd |
| --- | --- |
| CC(C)CC[C@H](NS(=O)(=O)c1ccc(Oc2ccccc2)cc1)C(=O)N[C@@H](Cc1ccc(I)cc1)C(=O)N[C@@H](CS)C(N)=O [Example 17] | 5.2 µM |
| CC(C)CC[C@H](NS(=O)(=O)c1ccc(Cl)s1)C(=O)N[C@@H](Cc1ccc(I)cc1)C(=O)N[C@@H](CS)C(=O)NCc1ccccn1 [Example 48] | 2.6 µM |
| CC(C)CC[C@H](NS(=O)(=O)c1ccc(-c2cc(C(F)(F)F)nn2C)s1)C(=O)N[C@@H](Cc1ccc(I)cc1)C(=O)N[C@@H](CS)C(=O)NCCCCl [Example 51] | 3.1 µM |
